Screening results: PubChem, National Center for Advancing Translational Sciences (NCATS)
KDM4E inh = blocks human JMJD2E demethylase activity; B2RXH2; JMJD2E catalytic domain, FDH-coupled NADH fluorescence (FDH is formaldehyde dehydrogenase); Potency, µM (top dose mostly 57.1 µM), inactives show at the highest dose activity change, negative = inhibition, most hits filed as inhibitors; 230,000 compounds, 1.6% hits; AID 2147; active = well fitted inhibition curve with a large enough effect, not every such curve was filed as active; inconclusive = small, poorly fitted or top-dose-only effect, or another doubt; inactive = no such curve, though single readings can be large or run the other way;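 note: potency is the fitted concentration of half-maximal effect; 0% = wells with enzyme and -100% = buffer wells without enzyme; nearly all actives have a fitted effect of over 50% in size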
Sfp inh = blocks B. subtilis Sfp PPTase activity; Q9F4F7; Biochemical Sfp PPTase activity, qHTS; Potency, µM, for the others: max response, negative = inhibition, most hits filed as inhibitors; actives 3.5% (n = 310,000); AID 1490; active = well fitted inhibition curve with a large enough effect; inconclusive = small, poorly fitted or top-dose-only effect, or another doubt; inactive = no such curve, though single readings can be large or run the other way;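 also: the enzyme is Sfp with the accession as filed and its product quenches rhodamine fluorescence; potency is read from the fitted curve at half-maximal effect; 0% = enzyme reaction without inhibitor and -100% = no enzyme wells; top concentration of the series not given in the record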
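Compounds were incubated with enzyme (final 15 nM) for 15 min at room temperature before substrate addition started the reaction. Fluorescence at 525 nm excitation, 598 nm emission was recorded immediately and after 30 minutes.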
LMNA splice mod = modulators of lamin A splicing; HeLa LMNA splicing GFP/RFP minigene ratio, 48 h; 200,000 compounds, 0.01% hits; Potency, µM (doses to about 46.1 µM), inactives show top-dose ratio change, negative = inhibition, actives largely listed as inhibitors; active = well fitted inhibition curve with a large enough effect in the signal ratio, with a control signal flat, not every such curve was filed as active; inconclusive = small, poorly fitted or top-dose-only effect, or effect the other way, or a change in a side signal; the % refers to the signal ratio; note: potency is the fitted concentration of half-maximal effect; % is set by controls: 0 for no effect and ±100 for the full control effect
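S3 HeLa cells stably expressing lamin A-EGFP splicing minigene plus DsRed2, 600 cells/well, 48 h compound exposure at 37C. Laser-scanning cytometry; analysed as GFP (500-530 nm)/RFP (575-640 nm) total intensity ratio; 0.5% DMSO vehicle.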
miR-21 reporter = raises the signal of a miR-21 reporter. Potency, µM (highest dose often 38.3 µM), without a hit: top-dose reporter change, positive = more light. 340,000 tested, under 10 active. HeLa miR-21 FLuc reporter, luciferase, 48 h; active = well fitted rising curve with a large enough effect; inconclusive = small, poorly fitted or top-dose-only effect; inactive = no such curve, though single readings can be large or run the other way;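 further: % of control where 0% means no effect; miR-21 action dims this reporter so a rising signal means less miR-21 action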
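Using DMEM plus 10% FBS, HeLa miR-21-FLuc cells are incubated with test compounds (final up to about 40uM) for 48 hours; firefly luciferase signal is then imaged following reagent-mediated lysis.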
ALDH1A1 block = blocks purified human ALDH1A1 activity; P00352; Purified ALDH1A1, NADH fluorescence, propionaldehyde substrate; Potency, µM (series often up to 75.3 µM), inactives show at the highest dose activity, negative = inhibition, most hits filed as inhibitors; 220,000 compounds, 7.3% hits; active = well fitted inhibition curve with a large enough effect, not every such curve was filed as active; inconclusive = small, poorly fitted or top-dose-only effect, or another doubt; inactive = no such curve, though single readings can be large or run the other way;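 note: potency is the fitted concentration of half-maximal effect; plate controls were no enzyme wells and a reference inhibitor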
G9a block = G9a (human) methyltransferase inhibition; Q96KQ7; G9a H3K9 monomethylation, AlphaScreen, 2 h; Potency, µM (highest dose often 102 µM), for inactives: at the top dose activity, negative = inhibition, hits mostly inhibitors; 350,000 compounds, 8.8% hits; AID 504332; note: potency is the fitted concentration of half-maximal effect; % is set by controls: 0 for no effect and ±100 for the full control effect; nearly all actives have a fitted effect of over 75% in size
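Readings reflect AlphaScreen signal from monomethyl-H3K9 antibody detection. HMT at 20 nM; substrate b-H3K9 500 nM; cofactor SAM 20 uM; 2 h RT reaction; compounds tested as titrations in qHTS with 15 min preincubation.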
Numbers without * were called inactive; ! = not active in a repeat; [ ] = remark or other dose. In the library only some 13% were active in any assay of this set; here they are far more common. Unless noted, calls come from the whole dose curve; as a rule, active = well fitted curve in the direction sought with a large enough effect; inconclusive = small, poorly fitted or top-dose-only effect, or another doubt; inactive = no such curve, though single readings can be large; an effect the other way counts as inactive or inconclusive.

`O=C(N/N=C/C(Br)=C/c1ccccc1)c1cccs1` gave KDM4E inh -9%, Sfp inh 56µM*, LMNA splice mod inconclusive, miR-21 reporter -49% and ALDH1A1 block -6%.
Screening CC(/C=N/NC(=O)Cc1cccs1)=C\c1ccco1 returned KDM4E inh -6%, Sfp inh inconclusive, LMNA splice mod 12%, miR-21 reporter -49%, ALDH1A1 block inconclusive and G9a block inconclusive.
Cc1cc(C)cc(NCc2cc3c(cc2[N+](=O)[O-])OCO3)c1 was read as KDM4E inh -2%, Sfp inh -10%, LMNA splice mod 4%, miR-21 reporter -14%, ALDH1A1 block inconclusive and G9a block 45µM*.
Screening O=[N+]([O-])c1ccc(NCc2ccc3c(c2)OCO3)cc1 returned KDM4E inh -14%, Sfp inh 9%, LMNA splice mod 19%[46 µM], miR-21 reporter -37%, ALDH1A1 block 3% and G9a block 0%.
COc1ccc(CNCc2cc3c(cc2[N+](=O)[O-])OCO3)cc1 was read as Sfp inh inconclusive, miR-21 reporter -12% and G9a block 10µM*.
COc1ccc(NC(=O)C(c2cc3c(cc2[N+](=O)[O-])OCO3)N(C)Cc2ccccc2)cc1 (stereo unspecified) was read as KDM4E inh -7%, Sfp inh -3%, LMNA splice mod inconclusive, miR-21 reporter -11%, ALDH1A1 block inconclusive and G9a block 79µM*.
For O=C(NC1(C(F)(F)F)N=C(c2ccccc2)N(C2CCCCC2)C1=O)c1ccc(F)cc1 (stereo unspecified) the results were miR-21 reporter 3% and G9a block -1%[59 µM].
`CCCCCCCCCCCCCCC[C@H](O)[C@@H](N)CO` gave KDM4E inh 6%, Sfp inh inconclusive, ALDH1A1 block 7% and G9a block inconclusive.
O=C(NCc1ccco1)Nc1cccs1 was read as KDM4E inh -5%, Sfp inh 18µM*, LMNA splice mod 4%, miR-21 reporter 2%, ALDH1A1 block 28µM* and G9a block inconclusive.
Screening O=C(NCc1ccco1)c1cccs1 returned KDM4E inh -4%, Sfp inh 0%, LMNA splice mod 3%, miR-21 reporter 0%, ALDH1A1 block inconclusive and G9a block 40µM*.
Screening O=C(NNC(=S)NCc1ccco1)c1cccs1 returned KDM4E inh -8%, Sfp inh 29%, LMNA splice mod 0%, miR-21 reporter -1%, ALDH1A1 block inconclusive and G9a block inconclusive.
Cc1noc(C)c1C(=O)N1CCC[C@@]2(CCN(c3cccc(-c4ccccc4)c3)C2)C1 was read as Sfp inh 2%, ALDH1A1 block -8% and G9a block -6%[12.7 µM].
`CC(C)CCN1C(=O)c2ccc(-c3nc4ccccc4c(=O)o3)cc2C1=O` gave KDM4E inh -7%, Sfp inh 6%, LMNA splice mod 11%, miR-21 reporter 1%, ALDH1A1 block 7.1µM* and G9a block 58%[12.7 µM].
`CC(C)(C)C(=O)Cn1ncc(Br)c(Br)c1=O` gave KDM4E inh 2%, Sfp inh -5%, miR-21 reporter inconclusive, ALDH1A1 block 7.9µM* and G9a block -12%.
For CCOc1ccccc1C(=O)N1CCCCC1CCN1CCOCC1 (stereo unspecified) the results were miR-21 reporter 7% and G9a block -6%[59 µM].

Fetched by structure from the list above:
Screening CC(/C=N/NC(=O)Cc1cccs1)=C\c1ccco1 returned KDM4E inh -6%, Sfp inh inconclusive, LMNA splice mod 12%, miR-21 reporter -49%, ALDH1A1 block inconclusive and G9a block inconclusive.
COc1ccc(CNCc2cc3c(cc2[N+](=O)[O-])OCO3)cc1 was read as Sfp inh inconclusive, miR-21 reporter -12% and G9a block 10µM*.
Cc1cc(C)cc(NCc2cc3c(cc2[N+](=O)[O-])OCO3)c1 was read as KDM4E inh -2%, Sfp inh -10%, LMNA splice mod 4%, miR-21 reporter -14%, ALDH1A1 block inconclusive and G9a block 45µM*.
COc1ccc(NC(=O)C(c2cc3c(cc2[N+](=O)[O-])OCO3)N(C)Cc2ccccc2)cc1 (stereo unspecified) was read as KDM4E inh -7%, Sfp inh -3%, LMNA splice mod inconclusive, miR-21 reporter -11%, ALDH1A1 block inconclusive and G9a block 79µM*.

Later entries
CC(C)(C)n1cnc(C(N)=O)c1N was read as KDM4E inh 3%, Sfp inh 4%, LMNA splice mod inconclusive, miR-21 reporter -2%, ALDH1A1 block 10µM* and G9a block inconclusive.
For NC(=O)c1ncn([C@@H]2O[C@H](CO)[C@@H](O)[C@H]2O)c1N the results were Sfp inh -19%.
`COc1ccc(CCNc2ncnc3c2nnn3C)cc1OC` gave LMNA splice mod 2%[46 µM], miR-21 reporter -2% and G9a block -3%[59 µM].
O=C(Nc1ccccc1)c1cc2c(-c3ccccc3)nn(-c3ccccc3)c2s1 was read as miR-21 reporter -1% and G9a block 8%[59 µM].
`NNC(=S)Nc1c(F)cc(F)cc1Br` gave KDM4E inh 3%, Sfp inh 79µM* and miR-21 reporter 0%.
`Cc1cc(C(=O)Nc2c(F)cc(F)cc2Br)cs1` gave Sfp inh -5% and miR-21 reporter -10%.
`CCNC(=S)N/N=C(\C)c1ccco1` gave KDM4E inh -4%, Sfp inh 56µM*, LMNA splice mod -12%[46 µM], miR-21 reporter 1%, ALDH1A1 block inconclusive and G9a block 35µM*.
For C/C(=N\NC(=S)Nc1cccc(C)c1)c1ccco1 the results were KDM4E inh -11%, Sfp inh 9%, LMNA splice mod -9%[46 µM], miR-21 reporter 1% and ALDH1A1 block inconclusive.
COc1ccccc1C(=O)NCCC(=O)NCC1COc2ccccc2O1 (stereo unspecified) was read as G9a block -8%[12.7 µM].
Screening O=C(O)/C=C\C(=O)Nc1ncn[nH]1 returned ALDH1A1 block -8%[13.5 µM].
For Cn1cc(Br)c(NC(=O)/C=C/C(=O)O)n1 the results were KDM4E inh -4%, Sfp inh 8.9µM*, miR-21 reporter 16% and G9a block 0.71µM*.
`COc1ccccc1CNc1ncncc1-c1cccc(C#N)c1` gave KDM4E inh 0%, Sfp inh 3%, LMNA splice mod -7% and ALDH1A1 block -1%.
For Cc1ccccc1NC(=O)c1ccc2c(O)c(S(=O)(=O)c3ccccc3)c(=O)[nH]c2c1 the results were Sfp inh 17%, miR-21 reporter -1% and G9a block 50µM*!.
For Oc1cccc(Nc2ncnc3c2oc2ccccc23)c1 the results were Sfp inh -8%, miR-21 reporter -105% and G9a block 50µM*.
`c1ccc(Nc2ncnc3c2oc2ccccc23)cc1` gave KDM4E inh inconclusive, Sfp inh 79µM*, LMNA splice mod inconclusive, miR-21 reporter -66%, ALDH1A1 block inconclusive and G9a block -33%[59 µM].
c1ccc2c(c1)oc1c(Nc3ccc(CN4CCOCC4)cc3)ncnc12 was read as KDM4E inh inconclusive, Sfp inh -5%, LMNA splice mod inconclusive, miR-21 reporter inconclusive, ALDH1A1 block 20µM* and G9a block inconclusive.
COc1cc(/C(C)=N/N2CCN(c3ccccc3OC)CC2)ccc1O was read as Sfp inh 3%, miR-21 reporter -32% and G9a block -14%.
Screening COc1ccc(Nc2ncc(C(=O)N3CCN(c4cccc(Cl)c4)CC3)c3ccccc23)cc1 returned miR-21 reporter inconclusive and G9a block -33%[59 µM].
